From ChEMBL document CHEMBL1158608, “Hit-to-lead optimization of disubstituted oxadiazoles and tetrazoles as mGluR5 NAMs” (Bioorg Med Chem Lett, 2010)
pIC50, pKi: −log10 of the molar value.

Protein sequences, listed by entry. Tags and fused reporters are not part of them.
UniProt P31424, whole entry: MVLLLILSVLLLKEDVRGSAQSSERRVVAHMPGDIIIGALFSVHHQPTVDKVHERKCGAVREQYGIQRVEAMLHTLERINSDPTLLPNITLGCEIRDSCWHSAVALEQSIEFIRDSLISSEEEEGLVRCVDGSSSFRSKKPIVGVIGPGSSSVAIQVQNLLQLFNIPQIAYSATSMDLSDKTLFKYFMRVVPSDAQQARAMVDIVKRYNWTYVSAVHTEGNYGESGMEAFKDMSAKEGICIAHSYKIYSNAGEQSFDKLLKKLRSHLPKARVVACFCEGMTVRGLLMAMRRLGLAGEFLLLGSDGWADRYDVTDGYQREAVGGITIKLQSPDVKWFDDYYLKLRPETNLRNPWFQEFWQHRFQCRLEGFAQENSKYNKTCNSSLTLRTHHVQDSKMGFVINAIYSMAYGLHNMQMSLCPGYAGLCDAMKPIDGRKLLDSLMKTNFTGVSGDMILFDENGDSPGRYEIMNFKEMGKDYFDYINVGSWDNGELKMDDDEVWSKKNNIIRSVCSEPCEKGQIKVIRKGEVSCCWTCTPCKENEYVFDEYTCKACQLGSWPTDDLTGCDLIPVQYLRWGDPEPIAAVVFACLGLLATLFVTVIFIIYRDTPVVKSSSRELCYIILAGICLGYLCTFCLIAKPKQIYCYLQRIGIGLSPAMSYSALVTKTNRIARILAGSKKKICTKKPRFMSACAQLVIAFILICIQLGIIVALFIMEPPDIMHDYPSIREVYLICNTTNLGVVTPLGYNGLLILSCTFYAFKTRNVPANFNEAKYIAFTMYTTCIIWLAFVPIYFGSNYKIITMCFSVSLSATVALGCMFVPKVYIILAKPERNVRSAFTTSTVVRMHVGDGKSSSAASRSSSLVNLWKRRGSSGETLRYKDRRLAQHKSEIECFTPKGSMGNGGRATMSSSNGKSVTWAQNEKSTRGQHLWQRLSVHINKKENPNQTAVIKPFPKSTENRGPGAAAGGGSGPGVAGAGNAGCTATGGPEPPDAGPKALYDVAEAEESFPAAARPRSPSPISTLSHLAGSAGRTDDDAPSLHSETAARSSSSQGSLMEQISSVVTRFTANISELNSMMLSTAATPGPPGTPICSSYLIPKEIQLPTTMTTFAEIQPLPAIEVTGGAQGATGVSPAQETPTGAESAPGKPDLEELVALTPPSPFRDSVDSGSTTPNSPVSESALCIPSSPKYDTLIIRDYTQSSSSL

Key:
[1] = target: T1, Metabotropic glutamate receptor 5 (Rattus norvegicus, UniProt P31424); assay: Allosteric modulation of mGluR5 in E17 rat neuronal cultures assessed as inhibition of (S)-3,5-dihydroxyphenylglycine-induced calcium level; format: functional
How it was run: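 Primary neocortical cultures from E17 rat embryos, grown at least 5 days, then loaded with the Ca2+ dye fluo-4/AM. Baseline and agonist-evoked fluorescence signals were recorded on a plate reader fluorometer.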

[2] = target: T1, Metabotropic glutamate receptor 5; assay: Displacement of [3H]-M-MPEP from mGluR5 in rat cerebrocortical membranes; format: cell membranes, Membrane
How it was run: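 Radioligand [3H]-M-MPEP at 2 nM. Nonspecific binding taken with 10 µM M-MPEP. Displacement run in duplicate or triplicate, with curves of at least six concentrations. IC50 was converted to Ki by Cheng-Prusoff, using Kd from a Scatchard plot.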

pIC50 [1]: 6.67
pKi [2]: 7.31
Compound: O=C(c1ccc(Br)o1)N1CCCCC1c1nnn(-c2cccc(Cl)c2)n1 (racemic)
